Data as given in patent US20130252945A1, “AMORPHOUS BIOINORGANIC IONIC LIQUID COMPOSITIONS COMPRISING PHARMACEUTICALS” (priority 2012, published 2013).

Assay: Dissolution in stirred cuvette of water monitored by UV-Vis absorption at 314 nm
Assay type: physicochemical
Conditions: 1 mM in stirred water at pH 6.5

In the case of `CNC(=C[N+](=O)[O-])NCCSCc1ccc(CN(C)C)o1.Cl` [ranitidine-HCl, Ranitidine hydrochloride, reference compound], the “stirring time until maximal absorption at 314 nm” value was 10 min.
